## scFv variants of Ab-14 (light chain) against a SARS-CoV-2 spike peptide

The measurements come from Li et al. 2023 (doi:10.1038/s41467-023-39022-2) through the FLAb antibody collection.

Target peptide (SARS-CoV-2 spike, HR2 region): PDVDLGDISGINAS

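The starting antibody came from a phage panning campaign against this peptide. These sequences belong to a second round, designed from the earlier measurements on random variants of the parent. Group labels follow the data file (Ctrl: baseline library sampled from a position-specific scoring matrix, with some repeated check sequences; GP: Gaussian process model; GPLM: also part of the Gaussian process libraries; HC: hill climbing; Gen: genetic algorithm; a sequence that several methods proposed may carry one label only). Affinity was read by AlphaSeq, a pooled yeast mating assay with surface-displayed partners. The frequency of each diploid, read from paired DNA barcodes, reflects how well the two displayed proteins bind. Each replicate has its own calibration line, from reference interactions of the BCL2 family. The assay was run in six technical replicates.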

Ab-14 is the parent antibody, in scFv form: VH, then the linker GGGGSGGGGSGGGGS, then VL. The heavy chain is unchanged in all variants.
VH: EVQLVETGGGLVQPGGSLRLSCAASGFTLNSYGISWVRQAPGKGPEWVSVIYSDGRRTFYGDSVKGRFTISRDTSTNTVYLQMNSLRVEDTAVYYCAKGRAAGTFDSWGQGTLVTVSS
VL: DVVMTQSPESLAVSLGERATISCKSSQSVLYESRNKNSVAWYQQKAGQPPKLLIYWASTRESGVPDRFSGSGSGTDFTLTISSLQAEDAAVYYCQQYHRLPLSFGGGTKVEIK

Substitutions are numbered in sequence along the VL above, starting at 1 (not Kabat). Numbers give log10(Kd / nM), so 0 is 1 nM and 3 is 1 µM. Smaller is tighter. A pair that was not seen in that replicate is written "n.d."; this usually means weak binding, but a binder can also be missed. The authors averaged sequences with at least three values out of six and counted those with two or fewer as poor binders. Some sequences occur more than once in the pool; their replicates are listed entry by entry, parted by semicolons. The range of this assay differs from that of the first round, and the authors advise against merging the two. Background: pairings of all light chain designs with three empty control strains gave a value in 4% of cases (median 2.64, 5th percentile 1.59). Values in that range, when seen in few replicates, are hard to tell from nonspecific mating. For each scFv, signals with the empty controls are counted beside the result, with their mean in brackets. Of ten entries with the parent sequence, four were seen in most replicates (averages 0.34 to 2.37), three in one and three in none, so single entries are noisy.

changes | group | replicates, log10 nM | control signals
K36M P101W | Ctrl | n.d. n.d. n.d. n.d. n.d. n.d. | 0 of 18
S25L S26G S28N W56D | Ctrl | 0.03 -0.09 -0.06 -0.24 0.30 0.25 | 0 of 18
Q27E Y31D A57G | Ctrl | 0.68 0.67 0.67 0.44 0.82 1.01 | 2 of 18 (2.23)
S25C L30D Y31N S33T E61S R99D | Ctrl | n.d. 2.54 n.d. 2.70 3.13 n.d. | 1 of 18 (2.04)
S62H | Ctrl | 0.95 0.75 1.46 1.26 1.36 1.12 | 0 of 18
S26P L30Q W56E R60G S62D Q95N H98F R99I | Ctrl | n.d. 2.20 n.d. n.d. n.d. 1.50 | 0 of 18
V29P Y31D S33T W56D | Ctrl | 1.40 n.d. 2.46 1.25 2.02 2.98 | 0 of 18
L30S Y31N S62L | Ctrl | n.d. n.d. n.d. n.d. n.d. n.d. | 0 of 18
R34D S103D | Ctrl | 1.87 2.91 n.d. 2.71 n.d. 3.45 | 3 of 18 (2.23)
S26I N35M | Ctrl | 1.63 1.90 0.95 0.87 1.19 1.25 | 1 of 18 (2.01)
Y31G K36Q S58Y L100E | Ctrl | n.d. n.d. n.d. n.d. n.d. n.d. | 0 of 18
K24H S26A N35M | Ctrl | 2.90 2.09 2.39 2.28 2.86 1.97 | 2 of 18 (3.12)
S25V S26Q S28Q R34N | Ctrl | 1.49 0.74 0.49 1.07 1.94 1.43 | 0 of 18
K36N S58K H98V | Ctrl | n.d. 1.76 n.d. n.d. n.d. n.d. | 0 of 18
S25N Q27I S62D Y97V L102C | Ctrl | n.d. n.d. n.d. n.d. n.d. n.d. | 1 of 18 (1.03)
S25I S28A N37M S38Q H98I | Ctrl | n.d. n.d. 1.05 n.d. 0.90 1.13 | 0 of 18
V29Q R34S W56N | Ctrl | 0.71 -0.03 0.22 -0.14 0.08 0.15 | 2 of 18 (2.06)
Q27I R34A K36S W56E | Ctrl | 0.26 0.35 0.29 0.15 0.38 0.37 | 2 of 18 (2.32)
K24Q S26D W56G E61L Q95P H98M | Ctrl | 1.00 0.62 0.52 0.86 1.10 1.55 | 2 of 18 (2.39)
S25M R34E N37V W56N E61Y | Ctrl | 0.72 0.39 0.41 0.30 0.24 0.53 | 2 of 18 (4.18)
S25I S33D W56N | Ctrl+GP_Gen | -0.21 -0.56 -0.35 -0.54 -0.60 -0.26; 0.07 -0.26 -0.43 -0.20 -0.44 -0.17 | 2 of 36 (2.40)
S25Q Q27V L100D | Ctrl | n.d. n.d. n.d. 1.77 n.d. n.d. | 0 of 18
Q27S S62N | Ctrl | 1.58 1.37 1.66 1.51 1.58 2.38 | 0 of 18
S38N W56E | Ctrl+GP_Gen | 0.67 0.16 -0.10 -0.19 -0.17 0.17; n.d. n.d. n.d. n.d. n.d. n.d. | 0 of 36
Y31E K36L V39I Q95D Y97L S103H | Ctrl | 0.66 1.83 n.d. 0.82 n.d. n.d. | 0 of 18
S38A W56Y E61D | Ctrl | 0.59 1.01 0.75 0.78 1.08 0.79 | 1 of 18 (1.69)
K36A A57G S58V | Ctrl | 1.37 2.20 2.23 1.73 1.90 2.23 | 0 of 18
S25M S26R E32I K36W E61A S62F Q96R | Ctrl | n.d. n.d. n.d. n.d. n.d. n.d. | 0 of 18
S33Q R34Y S103Y | Ctrl | n.d. n.d. n.d. n.d. 1.76 1.18 | 1 of 18 (2.12)
S25I Q27I S33D R34D | Ctrl | 1.70 0.59 n.d. -0.49 n.d. 0.82 | 0 of 18
L30M R34M R60P Y97K | Ctrl | 1.65 1.43 2.04 n.d. n.d. n.d. | 1 of 18 (1.81)
R34D S62N | Ctrl | 0.99 1.23 1.12 0.92 1.01 1.84 | 0 of 18
T59Q R99D | Ctrl | n.d. 2.93 n.d. n.d. 2.97 n.d. | 1 of 18 (2.08)
K36V W56H | Ctrl | 0.62 0.67 0.22 0.52 0.34 0.73 | 2 of 18 (2.24)
S25I S58I | Ctrl | 2.36 1.65 1.94 2.28 2.16 2.06 | 0 of 18
K24V V29F | Ctrl | 0.78 1.47 1.26 1.23 1.39 1.08 | 1 of 18 (1.60)
R34M W56G | Ctrl+GPLM_HC | 0.30 0.31 0.55 0.13 0.47 0.45; 0.05 0.22 -0.04 -0.21 -0.10 0.00 | 2 of 36 (2.60)
S38G W56S L102S | Ctrl | n.d. n.d. n.d. n.d. n.d. n.d. | 1 of 18 (1.65)
V29D W56S | Ctrl | 0.61 0.74 0.35 0.03 1.20 0.40 | 0 of 18
V29K K36C W56Q Q96T R99H | Ctrl | n.d. n.d. n.d. n.d. n.d. n.d. | 0 of 18
S28E N35M K36L L102A S103L | Ctrl | n.d. n.d. n.d. n.d. n.d. n.d. | 0 of 18
V29T K36W W56K S58V | Ctrl | 0.81 1.33 1.06 1.04 1.30 1.22 | 2 of 18 (2.28)
R34G S38P | Ctrl | n.d. 1.79 n.d. 3.91 n.d. n.d. | 1 of 18 (2.08)
K24L S25M Y31H E61S S103L | Ctrl | 1.02 1.75 1.30 1.46 1.43 1.34 | 2 of 18 (2.81)
S28T Y31W R34T S38G Q95F | Ctrl | n.d. n.d. n.d. n.d. n.d. n.d. | 0 of 18
Y31M K36A | Ctrl | 0.84 0.72 0.76 1.76 1.11 2.13 | 1 of 18 (2.57)

Repeated from above, the 3 best binders with a signal in all replicates:

changes	group	replicates, log10 nM	control signals
S25I S33D W56N	Ctrl+GP_Gen	-0.21 -0.56 -0.35 -0.54 -0.60 -0.26; 0.07 -0.26 -0.43 -0.20 -0.44 -0.17	2 of 36 (2.40)
S25L S26G S28N W56D	Ctrl	0.03 -0.09 -0.06 -0.24 0.30 0.25	0 of 18
V29Q R34S W56N	Ctrl	0.71 -0.03 0.22 -0.14 0.08 0.15	2 of 18 (2.06)